Among the data in PubChem BioAssay AID652231 (Johns Hopkins Ion Channel Center, 2013) are calcium response (% of ionomycin) values, retold here.

SMILES strings stand for the structures. The list shows a part of the results, in another mix than the full data. Active and inactive are the calls of the source.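 Rule for the calls: active = duplicate-averaged calcium signal over 20% of the ionomycin maximum, relative to buffer baseline; inactive = the rest.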

A short description of this assay: compound-evoked intracellular calcium rise – cell-based, counter-screen for TMEM16A inhibitor project, confirmation (AID 652231).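 Note: each well's signal is peak minus trough fluorescence divided by its pre-addition baseline; 0% = buffer wells and 100% = ionomycin wells.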 The note with it: TMEM16A/YFP HEK293, Fluo4 calcium mobilization; at 10 µM; hits give high values.
Consider `CCc1nc2c(n1)c1c(non1O)c1c2no[n+]1[O-]`, for which the calcium response (% of ionomycin) was inactive: 0%.
